Assay results taken from patent US8182983B2, “Method for determining immune system affecting compounds” (Canimguide Therapeutics AB, priority 2002, dated 2012).

System: normal PBMC
Assay: Homogenised tumour tissue and PIF incubated with serum albumin or IgG, IL-6 inducing activity
Format: cell-based, human
Procedure: The pelleted homogenised tumour tissue formed during preparation of PIF (se above) was kept on ice and stored at −70° C. PIF were prepared as described above. In one experiment, the homogenised sections were washed once more to collect a fourth supernatant, used as a control reflecting the IL-6 inducing activity in tumour sections before incubation. The fourth supernatant was divided into two parts, to one of which was added 20 mg/ml of HSA and directly frozen at −70° C. The mixtures of homogenised tumour tissue with 20 mg/ml HSA or with 10 mg/ml pooled human IgG for intravenous injection (IvIg), as well as the mixtures of PIF with 20 mg/ml HSA or with 10 mg/ml IvIg, all in RPMI/PEST, were incubated for 18-21.5 h at 37° C. Parallel incubations of tumour tissue and PIF with no addition of HSA or IvIg, as well as RPMI/PEST with addition of HSA or IvIg, were set up as controls. The mixtures were centrifuged and supernatants collected. The supernatants were buffer exchanged to RPMI as described previously and filtered through a 0.45 μm Millex-HV syringe filter (Millipore, MA, US) and stored at −70° C. until testing for monokine inducing activity in fresh, normal PBMC as described above.

## albumin: human serum albumin (HSA, Octapharma)
Added to washed tumour homogenates, 18-22 h at 37° C., determined in PBMC cultures
  production of cytokine inducing factors by washed tumour sections/homogenates: markedly increased
Albumin added to PIF, 37° C. for 18 h, compared to no addition
  IL-6 inducing activity of fresh PIF-fractions: lower
